From the NIST ThermoML archive (doi:10.1016/j.jct.2011.06.006)

Experiment: xn = mol fraction of the nth substance listed
Details: Liquid, Vibrating tube method

CCCCOCCCC [dibutyl ether] + CCCCO
mass density [kg/m3]
Details	x1 = 0.1553	x1 = 0.3249	x1 = 0.4979	x1 = 0.6748	x1 = 0.8501
333.15 K, 140000 kPa	–	–	835.9	831	826.7
353.15 K, 100 kPa	749.5	739.7	731.2	724.5	718.7
353.15 K, 10000 kPa	758.7	750.5	742.4	736.1	730.5
353.15 K, 20000 kPa	768.9	760.1	752.4	746.3	741
353.15 K, 30000 kPa	777.1	768.7	761.2	755.3	750.2
353.15 K, 40000 kPa	784.6	776.5	769.2	763.5	758.5
353.15 K, 50000 kPa	791.6	783.6	776.6	771	766.1
353.15 K, 60000 kPa	797.9	790.2	783.2	777.8	773
353.15 K, 70000 kPa	803.9	796.3	789.5	784.2	779.5
353.15 K, 80000 kPa	809.7	802	795.6	790.4	785.7
353.15 K, 90000 kPa	815	807.5	801.2	796.1	791.5
353.15 K, 100000 kPa	820	812.5	806.4	801.3	796.8
353.15 K, 110000 kPa	824.8	817.5	811.4	806.4	801.9
353.15 K, 120000 kPa	829.5	822.3	816.2	811.3	806.9
353.15 K, 130000 kPa	833.9	826.8	819.3	815.9	811.5
353.15 K, 140000 kPa	838.2	831.1	825.2	820.4	816
373.15 K, 100 kPa	730.5	720.4	711.9	704.9	699.6
373.15 K, 10000 kPa	742.1	732.7	725	718.4	713.4
373.15 K, 20000 kPa	752.6	743.7	736.3	730.1	725.3
373.15 K, 30000 kPa	762	753.4	746.1	740.3	735.7
373.15 K, 40000 kPa	770	761.8	754.6	749.1	744.6
373.15 K, 50000 kPa	777.5	769.5	762.6	757.2	752.8
373.15 K, 60000 kPa	784.5	776.7	769.9	764.7	760.4
373.15 K, 70000 kPa	790.9	783.4	776.7	771.6	767.4
373.15 K, 80000 kPa	796.9	789.5	783	777.9	773.8
373.15 K, 90000 kPa	802.7	795.4	789	784.1	780
373.15 K, 100000 kPa	808.1	801	794.6	789.7	785.7
373.15 K, 110000 kPa	813.3	806.4	800	795.3	791.3
373.15 K, 120000 kPa	817.9	811	804.8	800.1	796.1
373.15 K, 130000 kPa	822.6	815.8	809.7	805.1	801.1
373.15 K, 140000 kPa	827	820.2	814.3	809.6	805.7
393.15 K, 10000 kPa	724.2	714.5	706.9	700.7	696.2
393.15 K, 20000 kPa	735.9	726.8	719.7	713.8	709.5
393.15 K, 30000 kPa	745.8	737.1	730.3	724.7	720.6
393.15 K, 40000 kPa	755.2	746.9	740.3	734.9	730.9
393.15 K, 50000 kPa	763	754.9	748.6	743.3	739.3
393.15 K, 60000 kPa	770.6	762.6	756.6	751.3	747.5
393.15 K, 70000 kPa	777.6	769.8	763.8	758.7	754.9
393.15 K, 80000 kPa	784.2	776.6	770.7	765.7	762
393.15 K, 90000 kPa	790.1	782.7	776.9	772	768.3
393.15 K, 100000 kPa	795.8	788.6	782.5	778	774.3
393.15 K, 110000 kPa	801.4	794.3	788.3	783.8	780.2
393.15 K, 120000 kPa	806.5	799.4	793.5	789.1	785.4
393.15 K, 130000 kPa	811.4	804.4	798.6	794.2	790.6
393.15 K, 140000 kPa	816.2	809.2	803.5	799.1	795.6
